Experimental data as given in patent publication US7579439B2, “Modulation of IL-2- and IL-15-mediated T cell responses” (Beth Israel Deaconess Medical Center, Inc., priority 2000, dated 2009).

Key:
[1] = system: PHA-activated human PBMCs; test: [3H]-TdR incorporation assay, PHA-activated PBMCs; format: cell-based
Description: In the next series of experiments, the FLAG-HMK-IL-15 fusion protein was tested to determine whether it could function as a biologically active growth factor. […] Thus, FLAG-HMK-IL-15 is a biologically active growth factor that requires expression of IL-2Rβ chains upon target cells in order to stimulate cellular proliferation.

[2] = system: IL-2Rγ+ BAF-BO3 cell transfectants that express the IL-2Rβ subunit; test: BAF-BO3 cell proliferation assay (IL-2Rβ transfectants); format: cell-based; settings: BAF-BO3 transfectants expressing IL-2Rβ
Source text: A mutant IL-15 polypeptide that can be used according to the present invention will generally block at least 40%, more preferably at least 70%, and most preferably at least 90% of one or more of the activities of the wild-type IL-15 molecule. The ability of a mutant IL-15 polypeptide to block wild-type IL-15 activity can be assessed by numerous assays, including the BAF-BO3 cell proliferation assay described herein (in which the cells were transfected with a construct encoding IL-2Rβ). […] When examining the percent identity between two polypeptides, the length of the sequences compared will generally be at least 16 amino acids, preferably at least 20 amino acids, more preferably at least 25 amino acids, and most preferably at least 35 amino acids. The term “identity,” as used in reference to polypeptide or DNA sequences, refers to the identity between subunits (amino acid residues of proteins or nucleotides of DNA molecules) within the two polypeptide or DNA sequences being compared. […] Identity is typically and most conveniently measured using sequence analysis software, such as the Sequence Analysis Software Package of the Genetics Computer Group at the University of Wisconsin Biotechnology Center (1710 University Avenue, Madison, Wis. 53705), with the default parameters thereof. […]

[3] = system: T cells at the second cell division in vivo; test: In vitro proliferation of sorted in vivo dividing T cells (3H-TdR uptake); format: cell-based, mice; settings: IL-2 in doses as high as; IL-15 5 ng/ml; 48 hours
Description: FIG. 4B is a bar graph depicting the different response of in vivo dividing T cells to IL-2 and IL-15 in vitro. CFSE-labeled lymphocytes were stimulated in vivo for three days and cell division was analyzed by examining the CFSE profile. T cells in the second cell division were sorted and cells (1×10^4) were cultured in vitro with IL-2 or IL-15 for two days. Cellular proliferation was determined by ^3H-TdR uptake. The results are presented as the mean CPM±SD of triplicate assays.
Cell sorting and in vitro proliferation assays were carried out as follows. CFSE-labeled cells were prepared from irradiated allogeneic hosts three days after intravenous injection of labeled cells, and cell proliferation in vivo was identified by analysis of the cells' CFSE profile. The second cell division was selected, gated, and sorted with FACS Vantage™. Cells (1×10^4/ml) were resuspended in RPMI 1640 medium with 10% FCS and 1% penicillin and streptomycin, and stimulated with IL-2 (40 μ/ml to 500 μ/ml) or IL-15 (5 ng/ml) for 48 hours. Cells were pulsed with 1 mCi 3H-TdR (Amersham, Boston, Mass.) for 16 hours and ^3H-TdR uptake was determined by scintillation counting (Beckman Instrument, Columbia, Md.).

Question: For IL-2: recombinant human IL-2, which “stimulation of cell proliferation” value [1] is on record?
Answer: proliferate in response to

Question: And the stimulation of proliferation [2]?
Answer: stimulates proliferation

Question: And the “T cell proliferation by 3H-TdR uptake” value [3]?
Answer: failed to support T cell proliferation
